Test results published in US12692235B2, “Fused ring compound and application thereof” (WUHAN LL SCIENCE AND TECHNOLOGY DEVELOPMENT CO., LTD., priority 2019, dated 2026).

Protein sequences, listed by entry. Tags and fused reporters are not part of them. Residues count along the entry.
UniProt Q99571, 1-404 isoform 2: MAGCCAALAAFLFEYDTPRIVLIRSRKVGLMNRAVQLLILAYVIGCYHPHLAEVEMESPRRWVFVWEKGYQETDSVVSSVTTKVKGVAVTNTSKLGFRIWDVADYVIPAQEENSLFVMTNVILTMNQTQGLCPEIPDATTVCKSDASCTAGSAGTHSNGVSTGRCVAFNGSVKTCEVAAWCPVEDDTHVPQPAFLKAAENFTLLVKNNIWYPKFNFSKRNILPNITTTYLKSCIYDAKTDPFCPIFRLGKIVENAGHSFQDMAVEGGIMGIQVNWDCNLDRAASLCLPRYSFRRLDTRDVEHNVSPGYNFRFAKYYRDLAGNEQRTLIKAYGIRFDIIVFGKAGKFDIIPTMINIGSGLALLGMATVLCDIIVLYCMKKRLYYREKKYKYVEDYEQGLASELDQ

Target: hP2X4 (human purinergic P2X receptor subtype 4) (Homo sapiens, UniProt Q99571)
Details: read-out: P2X4 IC50; HEK293 cells stably expressing hP2X4; agonist BZ-ATP 2.5 μM; FLIPR calcium

Work on NS(=O)(=O)c1cc(NC(=O)Cc2ccccc2Cl)cc2c(C(F)(F)F)cncc12 yielded an IC50 of less than 10 nM.
